scFv variants of Ab-14 (heavy chain) against a SARS-CoV-2 spike peptide

Source: Li et al. 2023 (doi:10.1038/s41467-023-39022-2), MIT Lincoln Laboratory and A-Alpha Bio; data file from the FLAb repository.

Target peptide (SARS-CoV-2 spike, HR2 region): PDVDLGDISGINAS

Each scFv is VH, three GGGGS repeats, VL, as in the parent Ab-14, and differs from it in the CDRs of the heavy chain only.
VH: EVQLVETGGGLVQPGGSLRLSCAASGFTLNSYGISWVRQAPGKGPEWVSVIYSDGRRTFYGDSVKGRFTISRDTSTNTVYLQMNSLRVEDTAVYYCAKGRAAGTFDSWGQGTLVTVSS
VL: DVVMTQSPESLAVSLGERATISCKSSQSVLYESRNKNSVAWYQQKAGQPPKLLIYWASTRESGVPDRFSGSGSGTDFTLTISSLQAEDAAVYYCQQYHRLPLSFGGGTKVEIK

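The parent was found by panning a naive human phage display library on the peptide. The variants were designed computationally from a first round of random CDR variants and then made and measured. Their group label is 14H_En_Gen (En: ensemble of fine-tuned language models; Gen: genetic algorithm). Affinity was read by AlphaSeq, a pooled yeast mating assay with surface-displayed partners. The frequency of each diploid, read from paired DNA barcodes, reflects how well the two displayed proteins bind. Each replicate has its own calibration line, from reference interactions of the BCL2 family. Mating was done six times.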

Each variant is given by its three heavy chain CDRs, as the data file delimits them; those of the parent are GFTLNSYGIS, VIYSDGRRTFYGDSVK, GRAAGTFDS.
Scale: log10 of Kd in nM, estimated from mating counts; low values are strong binders.
"n.d." means that the variant was in the library but no mating with the target was seen in that replicate; the authors take this as a sign of poor binding, and no number exists.
Three control strains display no target. For all heavy chain designs, 1% of the pairings with them gave a signal, with a median of 2.08 and one signal in twenty below 0.84, so weak values seen in few replicates may be background. Also given: how often the same scFv was detected with the empty control strains, with their mean in brackets.
A sequence measured in both rounds can read differently, since the two assays cover different ranges.
The authors' rule: three or more of the six replicates give a measured affinity, fewer mean a poor binder.

CDR-H1,CDR-H2,CDR-H3,"replicates, log10 nM",signal with controls
GFDLNEYGIS,VIYADGQRTAYADDVK,GEVAGTFDQ,-0.04 / -0.46 / 0.03 / -0.28 / 0.34 / -0.20,1/18 (1.75)
GFDLNEYGIS,VIYADGKRTSYADSVK,GNVAGTFDV,n.d. / -0.53 / n.d. / n.d. / n.d. / -0.55,0/18
GFDLNEYGIS,VIYADGMRTAYADDVK,GSNAGTFDM,-0.45 / -0.24 / -0.46 / -0.63 / -0.47 / -0.39,1/18 (1.86)
GFDLDEYGIS,VIYADGRRTAYANSVK,GEVAGTFDV,0.00 / -0.71 / -1.00 / -0.52 / -0.88 / -0.55,0/18
GFDLNEYGIS,VIYADGMRTAYANSVK,GETAGTFDV,-0.39 / -0.22 / -0.39 / -0.85 / -0.44 / -0.37,2/18 (2.58)
GFDLNEYGIS,VIYADGMRTFYADSVK,GNTAGTFDI,n.d. / -0.47 / n.d. / n.d. / n.d. / n.d.,0/18
GFDLNEYGIS,VIYADGKRTAYTDSVK,GNQAGTFDL,0.07 / -0.26 / -0.44 / -0.15 / -0.15 / 0.11,0/18
GFDLDEYGIS,VIYADGKRTAYADSVK,GTNAGTFDT,-0.24 / -0.19 / -0.06 / -0.35 / -0.20 / -0.15,0/18
GFDLNEYGIS,VIYADGTRTAYADSVK,GEVAGTFDV,0.14 / 0.21 / -0.21 / -0.23 / 0.05 / 0.16,0/18
GFDLNEYGIS,VIYADGQRTAYADSVK,GNQAGTFDV,-0.66 / -0.77 / -0.61 / -0.58 / -0.47 / -0.59,0/18
GFDLNEYGIS,VIYADGMRTAYADSVK,GGQAGTFDV,-0.51 / -0.84 / -0.84 / -0.85 / -0.94 / -0.62,3/18 (2.49)
GFDLDEYGIS,VIYADGKRTAYVDSVK,GNVAGTFDT,-0.71 / -0.63 / -0.73 / -0.81 / -0.32 / -0.22,0/18
GFNLDEYGIS,VIYADGRRTAYADSVK,GEVAGTFDV,-0.35 / -0.47 / -0.73 / -0.69 / -0.68 / -0.31,0/18
GFDLNEYGIS,VIYADGVRTFYADSVK,GENAGTFDT,-0.27 / -0.11 / -0.70 / -0.58 / -0.47 / -0.25,0/18
GFDLDEYGIS,VIYADGMRTAYTDNVK,GENAGTFDV,-0.30 / -0.21 / -0.53 / -0.65 / -0.44 / 0.10,0/18
GFDLNEYGIS,VIYADGKRTAYAESVK,GNVAGTFDV,-0.65 / -0.59 / -0.60 / -0.29 / -0.61 / 0.30,0/18
GFDLNEYGIS,VIYADGVRTAYADSVK,GEVAGTFDA,-0.44 / -0.01 / -0.13 / -0.35 / -0.12 / -0.33,0/18
GFDLNEYGIS,VIYADGQRTAYADNVK,GENAGTFDI,-0.36 / -0.33 / -0.43 / -0.24 / -0.34 / 0.73,0/18
GFDLDEYGIS,VIYADGMRTAYADKVK,GNNAGTFDI,0.03 / 0.19 / 1.16 / 0.60 / 0.34 / 0.15,0/18
GFDLNEYGIS,VIYADGVRTVYADSVK,GENAGTFDM,n.d. / n.d. / n.d. / n.d. / n.d. / n.d.,0/18
GFDLNEYGIS,VIYADGMRTAYADSVK,GQTAGTFDV,-0.62 / -0.54 / -0.80 / -0.84 / -0.38 / -0.56,1/18 (1.38)
GFDLDEYGIS,VIYADGRRTAYADSVK,GNVAGTFDV,-0.48 / -0.23 / 0.22 / -0.59 / 0.30 / -0.19,0/18
GFDLNEYGIS,VIYADGMRTYYADSVK,GQTAGTFDV,0.15 / -0.19 / -0.10 / -0.32 / -0.12 / 0.03,2/18 (3.33)
GFDLEDYGIS,VIYADGKRTAYADSVK,GEVAGTFDQ,-0.45 / -0.30 / 0.04 / 0.55 / 0.11 / -0.94,0/18
GFDLNEYGIS,VIYADGVRTAYADDVK,GNQAGTFDM,-0.39 / -0.66 / -0.74 / -0.60 / -0.43 / -0.41,0/18
GFDLNEYGIS,VIYADGVRTAYADSVK,GNTAGTFDM,1.15 / -0.14 / -0.35 / -0.45 / -0.95 / -0.72,0/18
GFDLNEYGIS,VIYADGMRKAYADSVK,GENAGTFDQ,-0.58 / -0.26 / -0.46 / -0.94 / -0.29 / -0.12,0/18
GFDLNEYGIS,VIYADGKRTAYADDVK,GETAGTFDV,0.24 / -0.06 / -0.61 / 0.22 / 0.15 / 0.20,0/18
GFNLDEYGIS,VIYADGVRTAYADSVK,GEVAGTFDL,-0.31 / -0.50 / -0.67 / -0.69 / -0.31 / -0.33,0/18
GFDLNEYGIS,VIYADGKRTAYSDSVK,GNTAGTFDI,-0.13 / -0.17 / -0.03 / -0.21 / -0.23 / -0.47,0/18
GFDLNEYGIS,VIYADGVRTAYADDVK,GQNAGTFDT,-0.79 / -0.60 / -0.72 / -0.91 / -0.43 / -0.40,1/18 (0.59)
GFDLNEYGIS,VIYADGMRTAYIDSVK,GNEAGTFDV,-0.05 / -0.14 / -0.58 / -0.54 / -0.55 / -0.01,0/18
GFDLNEYGIS,VIYADGERTAYADSVK,GNVAGTFDV,-0.42 / -0.35 / -0.44 / -0.33 / -0.51 / -0.26,0/18
GFNLDEYGIS,VIYADGMRTFYADSVK,GNVAGTFDL,-0.03 / -0.22 / -0.36 / -0.46 / -0.37 / -0.48,0/18
GFDLDEYGIS,VIYADGKRTAYTDSVK,GNQAGTFDV,0.02 / -0.06 / -0.36 / -0.12 / -0.30 / -0.36,0/18
GFDLNEYGIS,VIYADGMRTAYSDSVK,GTVAGTFDV,-0.88 / -0.55 / -0.83 / -0.93 / -0.72 / -0.69,0/18
GFDLDEYGIS,VIYADGRRTAYSDSVK,GNQAGTFDV,-0.44 / -0.39 / -0.49 / -0.37 / -0.13 / -0.01,0/18
GFDLNEYGIS,VIYADGSRTAYTDSVK,GNQAGTFDV,-0.73 / -0.38 / -0.22 / -0.64 / -0.55 / -0.75,0/18